The entries are a selection whose mix differs from that of the whole data set. Results filed as inconclusive are left out. A call without a number means that no potency is given here. Activity calls are given as the source filed them. The call rests on the fitted dose curve; tested in HEK293 cells.
Assay: qHTS for Inhibitors of binding or entry into cells for Marburg Virus
Settings: Marburg virus pseudotype entry/binding inhibition, cell-based; series mostly up to 49.2 µM
Potency means the concentration at half of the fitted maximal effect.

**Q.** For `CCC(=O)N(c1ccccc1)C1(COC)CCN(CCn2nnn(CC)c2=O)CC1`, which Potency is on record?
**A.** inactive

**Q.** For `CCC(=O)N(c1ccccc1)C1(COC)CCN(CCc2cccs2)CC1`, which Potency is on record?
**A.** active: 25.1 µM

**Q.** With `CCC(=O)N(c1ccccc1)C1CCN(CCc2ccccc2)CC1` as the compound, how does the Potency read?
**A.** inactive

Reference: PubChem BioAssay AID720532 (National Center for Advancing Translational Sciences (NCATS), 2013)
